The source of these data is patent US20090305951A1.

In this assay the target is His-tagged (C-terminal hexa-histidine) version of FGF-receptor 1, expressed in transfected HEK293 cells. Put plainly: cell-based or functional assay.

“second F3 module of NCAM (recombinant protein corresponding to aminoacids 612-705 of rat NCAM, with two N-terminal vector residues A and G) (from UniProt P13596 612-705)” registered an FGF-receptor phosphorylation (anti-phosphotyrosine immunoblot of His-purified FGF-receptor 1 from transfected HEK293 cells, 20 min stimulation) of 150%.
